Test results: patent US12605350B2, “Composition for preventing, ameliorating, or treating disease caused by nitration of tyrosine in proteins comprising tyrosine as effective component” (INDUSTRY-ACADEMIC COOPERATION FOUNDATION GYEONGSANG …, priority 2020, dated 2026)

System: mouse model of epileptic seizure which has been induced to have seizure by kainic acid
Experiment: epileptic seizure induced by kainic acid: seizure level, bodyweight, survival
Conditions: 5×L-Tyr (AIN-93G containing 905 mg/kg L-Tyr) compared to ND, kainic acid 30 mg/kg i.p.

## N[C@@H](Cc1ccc(O)cc1)C(=O)O [L-tyrosine]
  seizure level: statistically significant decrease in seizure level
